# Earlier results as cited in PMC7765920 (Molecules, 2020).
# Biological target: T1, GST-DYRK1A-ΔC (amino acids 1–499 of rat DYRK1A) (Rattus norvegicus, UniProt Q63470)
# T1 construct: containing amino acids 1–499 of rat DYRK1A; made in house; host or cells: E. coli
# Parameters: method as in PMID 26192590
# Conditions: 95% confidence intervals in parentheses; cited from earlier work
smiles,measurement,value
COc1ccc2c(c1)[nH]c1c(C)nccc12 [harmine],IC50,33 to 80 nM
